## Yeast mating assay 1: variants of the scFv Ab-14

The measurements come from Engelhart et al. 2022 (doi:10.1038/s41597-022-01779-4) through the FLAb antibody collection.

Binding partner: SARS-CoV-2 spike HR2 peptide, sequence PDVDLGDISGINAS.

Parent scFv Ab-14: VH joined to VL by three GGGGS repeats. Changes lie in the light chain CDRs alone.
VH: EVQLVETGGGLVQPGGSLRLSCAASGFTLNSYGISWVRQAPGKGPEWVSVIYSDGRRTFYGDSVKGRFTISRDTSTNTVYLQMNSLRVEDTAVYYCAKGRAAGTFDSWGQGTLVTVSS
VL: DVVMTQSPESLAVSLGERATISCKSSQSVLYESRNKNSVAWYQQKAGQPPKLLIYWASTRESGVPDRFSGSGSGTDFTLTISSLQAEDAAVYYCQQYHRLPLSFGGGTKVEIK

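Library AAYL50 holds single substitutions and randomly drawn double and triple substitutions in the CDRs. AlphaSeq pools MATa yeast showing the antibodies with MATalpha yeast showing the peptide. The frequency of each diploid, read from paired DNA barcodes, reflects how well the two displayed proteins bind. Read counts were normalised to the haploid input and turned into Kd by a linear fit to BCL2-family pairs of known affinity, for each replicate. Each pool was mated in three replicate cultures.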

The parent's light chain CDRs are KSSQSVLYESRNKNSVA, WASTRES, QQYHRLPLS; each variant's own CDRs replace them letter for letter. Affinities are written as log10 Kd with Kd in nM; a lower number is a better binder. A mean of the replicates is given; it leaves out those without a signal. A pair that was not seen in that replicate is written "nd"; this usually means weak binding, but a binder can also be missed. Parent in this assay: reference entry 0.65, copy in this library 1.68. Empty control strains, which show no peptide, gave a signal in 18% of pairings with library AAYL50; the median was 4.19 and 95% of these signals were weaker than 2.99. No background was subtracted. Also given: how often the same scFv was detected with the empty control strains, with their mean in brackets.

CDR-L1 | CDR-L2 | CDR-L3 | log10 Kd, replicates | mean log10 Kd (nM) | control signals
KSKQSVLYESRNKCSVA | DASTRES | QQYHRLPLS | nd nd nd | nd | 2/9 (3.78)
KSSASVLYESRNKNSVA | WASTRES | QQVHRLPLS | nd 3.15 6.22 | 4.68 | 5/9 (4.96)
KSSQSRLYESRNKNSVA | QCSTRES | QQYHRLPLS | 0.51 0.74 0.61 | 0.62 | 1/9 (3.86)
KSSQSVLYESRNKNSVA | WYWTREL | QQYHRLPLS | nd nd nd | nd | 0/9
KSSQSVLGESRNKNSVA | WGSTRES | QQCHRLPLS | nd nd 3.65 | 3.65 | 1/9 (5.57)
KSSQSVLYESRNLSSVA | WASTRES | PQYHRLPLS | 2.03 1.64 1.42 | 1.70 | 2/9 (4.10)
KSSQSVLYESRNKNSVA | WASTVNS | QQYHRLPNS | 2.42 2.41 3.02 | 2.62 | 6/9 (3.91)
KSSQSVLYESRNKNSVA | WASHRES | QQMHRLTLS | nd nd nd | nd | 0/9
KSSQSVVYESRNKNSQA | WASTRES | QQYHRLQLS | nd nd 5.38 | 5.38 | 4/9 (4.67)
DLSQSVLYESRNKNSVA | WASTRES | QQYHRLPLS | 0.37 0.17 0.13 | 0.22 | 2/9 (3.88)
KSSQSVLYESRNKESVA | WASTRES | MQYHRLVLS | nd nd nd | nd | 0/9
KSSPSVLYWSRNKNSVA | WASTRES | WQYHRLPLS | nd nd nd | nd | 1/9 (2.72)
KSSQSVLYESRNKNSVV | WASPRES | QQYHRLPLM | nd 4.78 nd | 4.78 | 2/9 (3.42)
KSSQSVLYESRNKNSVS | WESTRES | QQYHRLPLS | 4.85 4.17 4.02 | 4.35 | 5/9 (5.03)
KSSQSVLYESRGQNSVA | WASTRQS | QQYHRLPLS | 0.23 0.88 0.71 | 0.61 | 2/9 (3.28)
KSSQVPLYESRNKNSVA | WASTRES | QQYHRLPPS | 0.96 1.10 1.06 | 1.04 | 9/9 (4.81)
KSSQSVLYWSRNKNSVA | WASTRES | IQYPRLPLS | 4.05 4.77 nd | 4.41 | 6/9 (4.55)
KSSQSVLYESRNKNSVF | WASTRES | QQYHRLFLS | nd nd nd | nd | 0/9
KSSQSVLYESRNKGSVA | WASTRES | QQYHRCPLR | nd 3.62 nd | 3.62 | 0/9
KRSQSVLYESRNKNSVA | WASTRES | DQYHRLPLG | nd nd nd | nd | 1/9 (2.46)
KCSQSVLYESRNKNSVA | WASTRES | RQYHRLPLN | 0.85 1.05 0.92 | 0.94 | 1/9 (3.97)
KSSQSVLYYSRNKNSVA | WASTRES | QQYHRLPVY | nd nd nd | nd | 2/9 (3.81)
KSSQYVLYESRNKNSVA | WASTRES | QWLHRLPLS | 2.77 2.69 3.47 | 2.97 | 1/9 (4.22)
KSMQSVLYECRNKNSVA | WASTRES | QQYHRLPLT | nd nd nd | nd | 1/9 (2.66)
KSSQSVLYESRNKNSVA | WASTPLS | QPYHRLPLS | 3.05 2.52 4.24 | 3.27 | 2/9 (3.60)
KSSQSVLYSSRNKNSVA | VASTRES | QCYHRLPLS | 2.76 2.40 4.47 | 3.21 | 0/9
KSSQSVLREIRNKNSVA | SASTRES | QQYHRLPLS | 0.56 0.89 0.75 | 0.73 | 2/9 (3.34)
KSSQSALYESRNKNSVA | WCSTRES | QQYHRLPLS | nd 2.56 2.37 | 2.46 | 1/9 (4.48)
KSDQSVLYESRNKNSVA | WASARES | QQNHRLPLS | nd nd nd | nd | 0/9
ASSQSVLYESRNKNSVA | WASTRTS | QQYHWLPLS | nd nd nd | nd | 0/9
GSSQSVLYESRNKNSVA | WASTRET | QQYHRLPWS | 2.59 2.53 2.45 | 2.52 | 3/9 (4.10)
KSSQSVLYEKRNKNSDA | WASTRES | QVYHRLPLS | 6.14 nd nd | 6.14 | 1/9 (5.08)
KSSQSVLYESRNKNSVS | WASWRES | QQYVRLPLS | 2.33 2.52 2.72 | 2.52 | 1/9 (4.00)
KSSQSVLYESRNKNSVA | WASTHES | QQLHHLPLS | nd nd nd | nd | 1/9 (3.65)
KSSMSVLYESRNTNSVA | WASTRES | QQYHRLYLS | nd 3.38 nd | 3.38 | 2/9 (3.46)
VSEQSVLYESRNKNSVV | WASTRES | QQYHRLPLS | nd nd nd | nd | 0/9
KSSQSVLYESRNKNSVA | CASTRES | QQYHRLPLK | 1.27 1.47 1.64 | 1.46 | 1/9 (3.85)
KSDQSVLYESRNKNSVA | WASTCES | QQYIRLPLS | 2.31 2.12 2.20 | 2.21 | 3/9 (4.33)
GSSQSVLYESRNKNSVA | WASTRES | QQYHRIPSS | 4.30 nd nd | 4.30 | 0/9
KSSVSVLYESRNNCSVA | WASTRES | QQYHRLPLS | 2.13 1.89 2.22 | 2.08 | 4/9 (4.72)
KSSQSVLYTSRNKNSVA | WAITRES | QQYHKLPLS | 1.08 1.04 0.88 | 1.00 | 2/9 (3.76)
KSSQSVQYESRNKNSVA | WAKTRES | QQPHRLPLS | nd nd nd | nd | 1/9 (2.71)
KSAQSVLYESRNKPSVA | WASTREN | QQYHRLPLS | 3.20 2.88 2.85 | 2.98 | 3/9 (4.13)
KSSQSVLYERHNKNSVA | WASTRES | QQYHWLPLS | 2.33 2.49 2.38 | 2.40 | 3/9 (4.53)
KSGQSVLYESRNKNSVA | WAATRES | QQYHRLPLK | nd 4.85 3.84 | 4.34 | 2/9 (4.02)
KDSQSVLYESRNKNSVA | WASTRES | QQYHEDPLS | nd nd nd | nd | 1/9 (4.87)
KSSQSVLYESRNKYSVA | WASTREP | QQYHRLPLS | 0.64 0.83 0.58 | 0.68 | 1/9 (4.32)
KSSQSVLYEVRNKNSVA | PASTMES | QQYHRLPLS | nd nd 4.86 | 4.86 | 3/9 (4.15)

Repeated from above, the 7 best binders with a signal in all replicates:

| CDR-L1 | CDR-L2 | CDR-L3 | log10 Kd, replicates | mean log10 Kd (nM) | control signals |
|---|---|---|---|---|---|
| DLSQSVLYESRNKNSVA | WASTRES | QQYHRLPLS | 0.37 0.17 0.13 | 0.22 | 2/9 (3.88) |
| KSSQSVLYESRGQNSVA | WASTRQS | QQYHRLPLS | 0.23 0.88 0.71 | 0.61 | 2/9 (3.28) |
| KSSQSRLYESRNKNSVA | QCSTRES | QQYHRLPLS | 0.51 0.74 0.61 | 0.62 | 1/9 (3.86) |
| KSSQSVLYESRNKYSVA | WASTREP | QQYHRLPLS | 0.64 0.83 0.58 | 0.68 | 1/9 (4.32) |
| KSSQSVLREIRNKNSVA | SASTRES | QQYHRLPLS | 0.56 0.89 0.75 | 0.73 | 2/9 (3.34) |
| KCSQSVLYESRNKNSVA | WASTRES | RQYHRLPLN | 0.85 1.05 0.92 | 0.94 | 1/9 (3.97) |
| KSSQSVLYTSRNKNSVA | WAITRES | QQYHKLPLS | 1.08 1.04 0.88 | 1.00 | 2/9 (3.76) |